# Literature values, collected in PMC11533685.
# Target: CD80 ECD (Homo sapiens) (UniProt P33681)
# Assay: SPR
substance,measurement,value
CTLA4 ECD (from UniProt P16410),Kd,12 µM
